This is an account of results in patent US8833363B2, “Ejection liquid, ejection method, method for forming liquid droplets, liquid ejection cartridge and ejection apparatus” (Canon Kabushiki Kaisha, priority 2004, dated 2014).

The series is classed as physicochemical. The note with it: albumin in PBS, as protein concentration increases, FIG. 6. The protocol: Before describing Examples, an ejection amount when a solution containing a protein alone is ejected in accordance with the thermal inkjet system will be shown in order to facilitate the understanding why it is difficult to eject a protein solution. A solution of albumin in PBS was prepared as the protein solution in various concentrations. Each of the solutions was ejected by a liquid ejection apparatus, which was modified from a bubble-jet printer (trade name: PIXUS 950i manufactured by Canon Inc.) so as to collect the solution. The ejection amount (the amount of a single liquid droplet) of each albumin solution is indicated based on that of pure water (ejected in the same manner) being 100%.
Solutions containing insulin in a concentration of 1.0 mg/mL with and without an additive(s) were ejected in accordance with the thermal inkjet system. The ejection amount of a solution and its reproducibility were evaluated in the cases where an additive was added and not added to the solution.
Evaluation was performed by using • a solution of 1.0 mg/mL insulin containing 1.0 mg/mL proline and 1.0 mg/mL TWEEN 80 (Ins/Pro/Tw); • a solution of 1.0 mg/mL insulin containing 1.0 mg/mL proline (Ins/Pro); • a solution of 1.0 mg/mL insulin containing 1.0 mg/mL TWEEN 80 (Ins/Tw); and • a solution of 1.0 mg/mL insulin alone. […]

For “albumin: solution of albumin in PBS prepared in various concentrations (Reference Example 1)”, the “ejection amount (single liquid droplet) relative to pure water (100%)” value is given as “gradually reduces toward zero”.
